Amino acid sequences for entries named in this document (tags omitted). Chains listed by the source or under a name are the forms on record and can include a tag or linker.
UniProt Q12809, with tags, fused parts or gaps DEL141-380/DEL871-1005: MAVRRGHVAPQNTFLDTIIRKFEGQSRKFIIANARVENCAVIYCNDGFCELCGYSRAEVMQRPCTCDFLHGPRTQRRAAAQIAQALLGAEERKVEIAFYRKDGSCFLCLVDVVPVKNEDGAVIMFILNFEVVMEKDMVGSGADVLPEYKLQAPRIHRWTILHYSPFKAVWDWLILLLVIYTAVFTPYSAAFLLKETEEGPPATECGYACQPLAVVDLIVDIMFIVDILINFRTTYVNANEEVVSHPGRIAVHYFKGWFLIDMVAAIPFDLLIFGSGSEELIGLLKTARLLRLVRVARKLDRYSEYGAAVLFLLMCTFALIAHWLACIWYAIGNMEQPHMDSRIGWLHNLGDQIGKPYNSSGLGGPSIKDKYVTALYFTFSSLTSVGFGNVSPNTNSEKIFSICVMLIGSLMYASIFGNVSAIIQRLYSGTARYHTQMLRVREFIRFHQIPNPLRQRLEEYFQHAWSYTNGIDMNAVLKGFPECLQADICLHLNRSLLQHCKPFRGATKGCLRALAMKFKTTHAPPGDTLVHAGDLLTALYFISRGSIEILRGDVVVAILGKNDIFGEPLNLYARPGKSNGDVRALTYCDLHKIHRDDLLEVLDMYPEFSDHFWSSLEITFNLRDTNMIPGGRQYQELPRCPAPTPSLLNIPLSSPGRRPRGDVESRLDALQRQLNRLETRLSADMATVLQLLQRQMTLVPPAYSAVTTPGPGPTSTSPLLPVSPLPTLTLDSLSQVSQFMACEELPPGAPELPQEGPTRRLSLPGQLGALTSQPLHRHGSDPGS

In US11579152B2, “Engineered hERG channel proteins, vesicles and methods of identifying small molecule pharmacological agents” (priority 2016, dated 2023):

Legend:
hERG channel = hERG channel (Homo sapiens, UniProt Q12809, DEL141-380/DEL871-1005); assay: biochemical
hERG = hERG (Homo sapiens, UniProt Q12809); conditions: read-out: IC50 patch; electrophysiology-determined values reported in the literature; cited from earlier work

| SMILES | IC50 (hERG channel) | IC50 (hERG) |
| --- | --- | --- |
| CC(C)COCC(CN(Cc1ccccc1)c1ccccc1)N1CCCC1 (stereo not drawn) [Bepridil] | 0.595 ± 0.066 µM | 0.023 to 0.099 µM |
| CN1CCCCC1CCN1c2ccccc2Sc2ccc([S+](C)[O-])cc21 (stereo not drawn) [Mesoridazine] | 6.65 ± 1.39 µM | 0.426 µM |
| OC(c1cc(C(F)(F)F)nc2c(C(F)(F)F)cccc12)C1CCCCN1 (stereo not drawn) [Mefloquine] | 2.97 ± 0.421 µM | 2.6 to 5.6 µM |
